Here are results for 2 compounds from patent US10961236B2, “(S)-2-(1-cyclopropylethyl)-5-(4-methyl-2-((6-(2-oxopyrrolidin-1-yl)pyridin-2-yl)amino) thiazol-5-yl)-7-(methylsulfonyl)isoindolin-1-one as a phosphatidylinositol 3-kinase inhibitor” (AstraZeneca AB, priority 2016, dated 2021).

The chains behind the UniProt entries cited, without tags or fusion partners. Where a name states a change or a piece, a line headed by the entry shows the natural chain unless it says otherwise.
UniProt O00329: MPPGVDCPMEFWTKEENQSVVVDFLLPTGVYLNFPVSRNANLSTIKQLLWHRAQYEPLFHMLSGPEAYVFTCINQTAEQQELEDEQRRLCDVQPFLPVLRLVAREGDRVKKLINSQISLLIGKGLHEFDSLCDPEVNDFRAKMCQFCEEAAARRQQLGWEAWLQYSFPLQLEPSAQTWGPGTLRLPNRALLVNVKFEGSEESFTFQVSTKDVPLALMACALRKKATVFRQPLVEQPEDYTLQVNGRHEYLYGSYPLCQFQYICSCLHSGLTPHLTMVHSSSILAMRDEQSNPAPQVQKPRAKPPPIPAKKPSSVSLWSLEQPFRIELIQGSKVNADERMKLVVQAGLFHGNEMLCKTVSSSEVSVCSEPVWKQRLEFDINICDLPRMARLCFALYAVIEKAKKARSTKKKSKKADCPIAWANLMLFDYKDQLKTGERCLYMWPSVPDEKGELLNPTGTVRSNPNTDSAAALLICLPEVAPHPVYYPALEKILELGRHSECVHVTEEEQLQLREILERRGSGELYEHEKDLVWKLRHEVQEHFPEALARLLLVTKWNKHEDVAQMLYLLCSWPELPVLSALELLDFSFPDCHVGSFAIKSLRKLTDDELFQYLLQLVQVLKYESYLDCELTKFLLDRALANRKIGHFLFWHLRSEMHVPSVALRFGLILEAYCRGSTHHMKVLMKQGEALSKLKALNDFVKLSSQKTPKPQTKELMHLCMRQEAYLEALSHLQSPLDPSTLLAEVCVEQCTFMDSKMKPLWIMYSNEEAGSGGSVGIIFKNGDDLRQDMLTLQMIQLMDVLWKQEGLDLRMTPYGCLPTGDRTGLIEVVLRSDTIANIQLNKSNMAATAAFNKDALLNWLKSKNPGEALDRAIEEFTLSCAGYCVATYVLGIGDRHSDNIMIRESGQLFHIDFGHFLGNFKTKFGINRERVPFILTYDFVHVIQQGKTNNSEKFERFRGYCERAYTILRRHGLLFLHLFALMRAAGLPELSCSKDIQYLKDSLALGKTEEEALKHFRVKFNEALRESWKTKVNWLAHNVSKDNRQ

This test deals with recombinant human PI3Kδ (6-His(p110-p85α)) (Homo sapiens (Human), UniProt O00329). The test is described as follows: Enzymatic activity assay for recombinant human PI3Kδ (ADP-Glo). The test is classed as biochemical. As to conditions: 0.6 nM PI3Kδ, 20 μM ATP, 80 μM DiC8-PIP2, ADP-Glo. The protocol:
Enzymatic Activity Assay for Recombinant Human PI3K α, β, δ and γ.
The activity of recombinant human PI3Kγ ((aa144-1102)-6His) and PI3Kα, β, δ (6-His(p110-p85α)) was determined by measuring the ADP level after phosphorylation of DiC8-PIP2 using a commercially available ADP-Glo™ kit from Promega. The assay was carried out in white low volume 384 well plates in a final volume of 14 μl at R.T. The assay conditions contained the following: 50 mM Tris buffer pH 7.4, 2.1 mM DTT, 3 mM MgCl2, 0.05% CHAPS, 20 μM ATP, 80 μM DiC8-PIP2 and 1.2 nM PI3Kα, β, γ or 0.6 nM PI3Kδ. […] Routinely, inhibitors were pre-incubated with 3 μl of enzyme for 15 min prior to the addition of 2 μl substrate mixture for a further 60 min enzyme reaction. The phosphorylation was stopped with the addition of 3 μl ADP-Glo™ reagent (stop solution) followed by a 40 min incubation. Prior to detection 6 μl of ADP-Glo™ Kinase Detection Reagent was added and the plates were read in a micro plate reader using a Luminescence filter. All additions were followed by a short centrifugation step.

For the compound `Cc1nc(Nc2cccc(N3CCOCC3=O)n2)sc1-c1cc2c(c(S(C)(=O)=O)c1)C(=O)N([C@@H](C)C1CC1)C2` [Example 7, 2-[(1S)-1-Cyclopropylethyl]-5-(4-methyl-2-{[6-(3-oxomorpholin-4-yl)pyridin-2-yl]amino}-1,3-thiazol-5-yl)-7-(methylsulfonyl)-2,3-dihydro-1H-isoindol-1-one], the half-maximal inhibitory concentration (IC50) turned out to be 1.4 nM.

As to `Cc1nc(Nc2cccc(N3CCOCC3=O)n2)sc1-c1cc2c(c(S(=O)(=O)NC3COC3)c1)C(=O)N([C@@H](C)C1CC1)C2` [Example 31, 2-[(1S)-1-Cyclopropylethyl]-6-(4-methyl-2-{[6-(3-oxomorpholin-4-yl)pyridin-2-yl]amino}-1,3-thiazol-5-yl)-N-(oxetan-3-yl)-3-oxo-2,3-dihydro-1H-isoindole-4-sulfonamide], the half-inhibitory concentration (IC50) came out at 1.1 nM.
